This is a selection; strong and weak results do not stand in their true shares. Some salts or complexes appear as unconnected parts, following the source record. Calls of active or inactive are those of the source.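 Rule for the calls: active = ratio plate-corrected score three or more library SD toward inhibition, starting fluorescence score within five deviations; inactive = the rest.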
The compounds below were run against Anoctamin-1 (Mus musculus) (UniProt Q8BHY3) (assay: TMEM16A chloride channel inhibitors, primary screen, cell-based, HTS (AID 588511)). Conditions: HEK293 TMEM16A/YFP iodide influx fluorescence, ionomycin; at 10 µM.

Sequences of proteins named here, by UniProt entry; tags and fusion partners are left off.
UniProt Q8BHY3, whole entry: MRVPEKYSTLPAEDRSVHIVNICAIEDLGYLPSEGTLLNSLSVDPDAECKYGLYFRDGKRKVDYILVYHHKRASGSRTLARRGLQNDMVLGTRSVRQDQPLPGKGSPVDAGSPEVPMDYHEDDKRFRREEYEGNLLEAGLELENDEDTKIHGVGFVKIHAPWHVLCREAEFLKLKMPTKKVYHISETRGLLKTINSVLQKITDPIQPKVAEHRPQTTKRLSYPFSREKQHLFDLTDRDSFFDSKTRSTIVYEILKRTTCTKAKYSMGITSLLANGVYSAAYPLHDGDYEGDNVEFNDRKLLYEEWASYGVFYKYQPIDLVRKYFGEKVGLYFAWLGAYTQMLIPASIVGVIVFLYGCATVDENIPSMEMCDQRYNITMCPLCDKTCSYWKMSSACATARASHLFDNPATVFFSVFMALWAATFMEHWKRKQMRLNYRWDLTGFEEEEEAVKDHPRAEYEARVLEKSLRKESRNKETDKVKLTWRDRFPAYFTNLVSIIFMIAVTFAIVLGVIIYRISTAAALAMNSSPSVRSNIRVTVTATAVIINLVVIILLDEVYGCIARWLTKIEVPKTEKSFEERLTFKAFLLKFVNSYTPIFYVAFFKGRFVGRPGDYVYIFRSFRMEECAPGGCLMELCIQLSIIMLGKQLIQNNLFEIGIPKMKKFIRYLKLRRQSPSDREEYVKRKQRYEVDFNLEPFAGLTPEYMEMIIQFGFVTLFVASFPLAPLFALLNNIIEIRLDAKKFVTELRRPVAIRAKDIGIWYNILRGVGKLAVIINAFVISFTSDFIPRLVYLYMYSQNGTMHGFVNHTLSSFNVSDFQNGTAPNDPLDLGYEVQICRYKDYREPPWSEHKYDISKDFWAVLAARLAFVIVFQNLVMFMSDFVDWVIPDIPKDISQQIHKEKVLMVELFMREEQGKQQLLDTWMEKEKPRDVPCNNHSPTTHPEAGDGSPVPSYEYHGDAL

SMILES | outcome
CC(=O)c1ccc(N2CC2c2ccncc2)cc1 (stereo not drawn) | inactive
O=C(OC1CN2CCC1CC2)c1ccc([N+](=O)[O-])cc1 (stereo not drawn) | inactive
O=C(OCCN1CCN(CCOCc2ccccc2)CC1)C(O)(c1ccccc1)c1ccccc1 | inactive
C[C@@H]1C=CCP(=O)(Oc2ccccc2)O1 (stereo partly drawn) | inactive
C[C@H]1OP(=O)(Oc2ccccc2)C[C@@H]2O[C@@H]21 (stereo partly drawn) | inactive
COc1ccc2c(c1O)-c1c(O)c(OC)cc3c1[C@H](C2)[N+](C)(C)CC3.O=[N+]([O-])c1cc([N+](=O)[O-])c([O-])c([N+](=O)[O-])c1[O-] | inactive
CC(=O)Nc1ccc([As](=O)(O)O)c(O)c1 | inactive
CC(=O)Nc1ccc(Oc2c([N+](=O)[O-])cc([N+](=O)[O-])cc2[N+](=O)[O-])cc1 | inactive
O=P1(Nc2nc3ccc(Cl)cc3s2)COc2ccccc2O1 (stereo not drawn) | inactive
CCOc1ccc(C2=NCC(CBr)S2)cc1 (stereo not drawn) | inactive
CP(=O)(Nc1ccccc1F)Oc1ccccc1 (stereo not drawn) | inactive
CC(C)(C)C(=O)NC(Sc1ccccc1)C(Cl)(Cl)Cl (stereo not drawn) | inactive
CC(C)c1ccc(OP(C)(=O)Nc2ccc(SC(F)(F)F)cc2)cc1 (stereo not drawn) | inactive
COC(=O)c1cc2c(s1)N=C(c1ccccc1)N(C)P2(=O)N1CCOCC1 (stereo not drawn) | inactive
CC(=O)NC(SC(=S)N(CC(C)C)CC(C)C)C(Cl)(Cl)Cl (stereo not drawn) | inactive
Cc1ccc(OP(=O)(Nc2ccccn2)Oc2ccc(C)cc2)cc1 | inactive
O=C(OC1CN2CCC1CC2)c1ccccc1 (stereo not drawn) | inactive
CCN(CC)CCCOC(=O)C(O)(c1ccccc1)C1CCCCC1 (stereo not drawn) | inactive
CCC(=O)N1C2C3N(C(=O)CC)C1C1N(C(=O)CC)C(C(N1C(=O)CC)N3C(=O)CC)N2C(=O)CC | inactive
CP(=O)(Nc1ccccc1)Oc1ccc(F)cc1 (stereo not drawn) | inactive

SMILES | outcome
Cc1ccccc1OP(=O)(Nc1ccccn1)Oc1ccccc1C | inactive
CN(C)C(=O)Oc1noc2ccccc12 | inactive
CCCCCOc1ccc(NP(C)(=O)Oc2ccc(Cl)cc2Cl)cc1 (stereo not drawn) | inactive
O=[N+]([O-])c1cc([N+](=O)[O-])c(OC2CCCCC2O)c([N+](=O)[O-])c1 (stereo not drawn) | inactive
CCNC(=S)/N=C(\N)N[N+](=O)[O-] | inactive
O=C(NC1CCS(=O)(=O)C1)NP(=S)(Oc1ccccc1)Oc1ccccc1 (stereo not drawn) | inactive
c1ccc(-c2nn[nH]n2)c(-c2nn[nH]n2)c1 | inactive
Cc1ccc(NP(=O)(Oc2cccc(C)c2)Oc2cccc(C)c2)nc1 | inactive
CCOC(=O)NC(Sc1ccccc1)C(Cl)(Cl)Cl (stereo not drawn) | inactive
CCOC(=O)c1ccc(NP(C)(=O)Oc2ccc(F)cc2)cc1 (stereo not drawn) | inactive
COc1ccc(OP(C)(=O)Nc2ccc(SC(F)(F)F)cc2)cc1 (stereo not drawn) | inactive
CC(=O)NC(SC(=S)N(C)C)C(Cl)(Cl)Cl (stereo not drawn) | inactive
O=[N+]([O-])c1ccc(OP2(=O)COCCO2)cc1 (stereo not drawn) | inactive
O=[N+]([O-])c1ncn(CCn2cnc([N+](=O)[O-])n2)n1 | inactive
O=[As](O)(c1ccccc1)c1ccc(O)cc1 | inactive
O=[N+]([O-])c1cc([N+](=O)[O-])c(NCC2CCS(=O)(=O)C2)c([N+](=O)[O-])c1 (stereo not drawn) | inactive
Nc1ccc([As](=O)(O)c2ccc([N+](=O)[O-])cc2)cc1 | inactive
C(Cc1nn[nH]n1)Cc1nn[nH]n1 | inactive
O=C(OC1CN2CCC1CC2)c1cccc(Cl)c1 (stereo not drawn) | inactive
COc1ccc(OP(C)(=O)Nc2cccc(Br)c2)cc1 (stereo not drawn) | inactive

SMILES | outcome
O=P(Nc1ccccn1)(c1ccc(Br)cc1)c1ccc(Br)cc1 | inactive
CN(C)C1(CNC(=O)c2ccc(Cl)c(S(N)(=O)=O)c2)CCCCC1 | inactive
CN(C)CCOC(=O)C(O)(c1ccccc1)C1CCCCC1 (stereo not drawn) | inactive
O=P(Nc1nc2ccccc2s1)(c1ccccc1)c1ccccc1 | inactive
C[C@H]1OP(=O)(Oc2ccccc2)[C@H](O)[C@H](O)[C@H]1N=[N+]=[N-] (stereo partly drawn) | inactive
COc1ccc(NP(C)(=O)Oc2ccccc2OC)cc1 (stereo not drawn) | inactive
CP(=O)(Nc1ccc2c(c1)OCCO2)Oc1ccccc1 (stereo not drawn) | inactive
Cc1ccccc1NP(C)(=O)Nc1ccccc1C | inactive
CP(=O)(Nc1ccc(SC(F)(F)F)cc1)Oc1ccc(F)cc1 (stereo not drawn) | inactive
CC(C)C(=O)NC(Sc1ccccc1)C(Cl)(Cl)Cl (stereo not drawn) | inactive
O=P(Nc1nccs1)(c1ccccc1)c1ccccc1 | inactive
CCOP(C)(=S)SCC(=O)NC(C)(CC)C(=O)O (stereo not drawn) | inactive
c1nnnn1CCn1cnnn1 | inactive
CC(C)(C)c1ccc(OP(C)(=O)O)cc1 | inactive
Nc1ccc([As](=O)(O)c2ccc(N)cc2)cc1 | inactive
COc1ccccc1OP(C)(=O)Nc1ccccc1Br (stereo not drawn) | inactive
C[N+]1=C2C=CC=CC=C2SC12C([N+](=O)[O-])=CC([N+](=O)[O-])=C[C-]2[N+](=O)[O-] (stereo not drawn) | inactive
CCN(/C(=N/P(=O)(N1CCOCC1)N1CCOCC1)N1CCOCC1)c1ccc(OC)cc1 | inactive
